Test results taken from PubChem BioAssay (EPA / NIEHS).
Where “and” joins values, the source holds several entries; their conditions need not be identical. Identical values can stand only once. The list shows a part of the results, in another mix than the full data. Records with an inconclusive call do not appear. A structure can be active in one record and inactive in another. Calls of active or inactive are those of the source. The calls were made as follows, unless noted: active = hit-call score of the fitted dose curve at least 0.9, where 1 is the maximum; inactive = score below 0.9.

Amino acid sequences for entries named in this document (tags omitted). A change or cut given only in a name is not applied to a line headed by its entry.
UniProt P11473: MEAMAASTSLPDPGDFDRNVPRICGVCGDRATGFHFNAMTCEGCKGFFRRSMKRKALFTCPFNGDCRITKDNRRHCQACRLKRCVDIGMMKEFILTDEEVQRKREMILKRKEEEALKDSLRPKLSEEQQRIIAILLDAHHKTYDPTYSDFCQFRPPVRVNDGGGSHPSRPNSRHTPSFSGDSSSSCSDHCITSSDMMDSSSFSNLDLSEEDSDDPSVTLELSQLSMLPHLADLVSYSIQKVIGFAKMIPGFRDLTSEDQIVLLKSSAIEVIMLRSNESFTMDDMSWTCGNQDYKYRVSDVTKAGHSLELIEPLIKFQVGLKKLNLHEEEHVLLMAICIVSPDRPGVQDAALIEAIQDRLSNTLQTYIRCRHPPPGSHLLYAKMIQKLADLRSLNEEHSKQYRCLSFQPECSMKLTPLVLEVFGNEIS

Columns and labels:
[1] = read-out: Monocyte Chemoattractant Protein-1 (MCP1), CCL2 (gene 6347); assay: BSK_4H_MCP1: BioMAP Diversity Plus: 4H Assay for Monocyte Chemoattractant Protein-1 (MCP1) Biomarker Activity (AID 2283018); details: actives raise or lower the signal; primary human endothelial cells (HUVEC)
In short: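 Human umbilical vein endothelial cells (4H system) dosed with chemical; MCP-1 measured by ELISA 24 h after dosing. Bidirectional curve fitting against DMSO negative control as baseline; parallel SRB total-protein staining tracks overt cytotoxicity.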

[2] = read-out: Human Leukocyte Antigen - DR isotype (HLADR), HLA-DRA (gene 3122); assay: BSK_3C_HLADR: BioMAP Diversity Plus: 3C Assay for Human Leukocyte Antigen - DR isotype (HLADR) Biomarker Activity (AID 2283019); details: actives raise or lower the signal; primary human endothelial cells (HUVEC);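 as to outcome: ELISA of cell-surface HLA-DR on HUVEC 24 h after dosing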
In short: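 HUVEC, 3C stimulation, 24 h post-dose; HLA-DR by ELISA; bidirectional curve fit vs DMSO baseline; gain or loss of signal scored.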

[3] = read-out: Interleukin-8 (IL8), CXCL8 (gene 3576); assay: BSK_3C_IL8: BioMAP Diversity Plus: 3C Assay for Interleukin-8 (IL8) Biomarker Activity (AID 2283020); details: actives raise or lower the signal; primary human endothelial cells (HUVEC)
In short: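 Primary human umbilical vein endothelial cells (3C system) were exposed to test chemical for 24 h, then IL-8 was quantified by ELISA. Responses were fitted bidirectionally against DMSO vehicle as baseline.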

[4] = read-out: Monokine induced gamma interferon (MIG), CXCL9 (gene 4283); assay: BSK_3C_MIG: BioMAP Diversity Plus: 3C Assay for Monokine induced gamma interferon (MIG) Biomarker Activity (AID 2283021); details: actives raise or lower the signal; primary human endothelial cells (HUVEC);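 as to AC50: MIG protein level measured by immunoassay in the treated endothelial cultures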
In short: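 Primary human umbilical vein endothelial cells in the 3C system were exposed to chemical for 24 h, after which MIG was quantified by ELISA. Activity was fitted bidirectionally against DMSO as negative control and baseline.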

[5] = target: human Vitamin D Receptor (VDR), VDR (gene 7421) (UniProt P11473); assay: ATG_VDR_TRANS: Attagene TRANS-FACTORIAL HepG2 Assay for human Vitamin D Receptor (VDR) (AID 2283022; active = hit-call score of the fitted dose curve at least 0.9, where 1 is the maximum)
In short: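 RT-PCR/capillary electrophoresis read-out of reporter mRNA induction in transiently transfected HepG2; 24 h dosing; chimeric NR-Gal4 (TRANS format); gain-of-signal fit against DMSO baseline.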

[6] = BSK_3C_SRB: Viability Assessment in the BioMAP Diversity Plus: 3C Assay (AID 2283023); details: primary human endothelial cells (HUVEC);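 also: cells read 24 h after compound dosing; fitted both ways against DMSO so a hit may be signal rise or drop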
In short: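 HUVEC, 24 h post-dose; 10% TCA fix, 0.1% SRB stain, A560 nm. Bidirectional curve fit vs DMSO negative control.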

[7] = read-out: Matrix Metallopeptidase 1 (MMP1), MMP1 (gene 4312); assay: BSK_BE3C_MMP1: BioMAP Diversity Plus: BE3C Assay for Matrix Metallopeptidase 1 (MMP1) Biomarker Activity (AID 2283024); details: actives raise or lower the signal; primary human bronchial epithelial cells
In short: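 Primary human bronchial epithelial cells were dosed with test chemicals, and MMP1 levels were measured by ELISA 24 h later. Data were fitted bidirectionally against DMSO as the negative control and activity baseline.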

[8] = BSK_3C_Vis: BioMAP Diversity Plus: 3C Assay for Morphology Visualization (AID 2283025); details: primary human endothelial cells (HUVEC);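 also: fitted both ways so gain or loss versus DMSO counts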
In short: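 Human umbilical vein endothelial cells in the 3C system were imaged by light microscopy 24 h after chemical dosing to record cell morphology. Activity was fitted bidirectionally against DMSO as negative control and baseline; the endpoint serves as a background control.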

[9] = read-out: Pselectin, SELP (gene 6403); assay: BSK_4H_Pselectin: BioMAP Diversity Plus: 4H Assay for Pselectin Biomarker Activity (AID 2283026); details: actives raise or lower the signal; primary human endothelial cells (HUVEC)
In short: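 Primary human umbilical vein endothelial cells were exposed to test chemical for 24 h, then cell-surface P-selectin was quantified by ELISA. Activity was fitted bidirectionally against DMSO as negative control and baseline.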

[10] = BSK_4H_SRB: Viability Assessment in the BioMAP Diversity Plus: 4H Assay (AID 2283027); details: primary human endothelial cells (HUVEC);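 also: cells exposed to compound for 24 h before staining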;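 as to AC50: curves fitted both ways versus DMSO so AC50 may be loss or gain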
In short: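 Human umbilical vein endothelial cells were dosed with chemical and, after 24 h, fixed with 10% TCA, stained with 0.1% sulforhodamine B, and read at 560 nm to give total protein as a cytotoxicity measure. Bidirectional fitting relative to DMSO control.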

Cc1cc([N+](=O)[O-])cc([N+](=O)[O-])c1O
outcome [1]: inactive
AC50 [2]: active: 26.5 µM
AC50 [3]: active: 20 µM
outcome [4]: inactive
outcome [5]: inactive
outcome [6]: inactive
outcome [7]: inactive
AC50 [8]: active: 39 µM
outcome [9]: inactive
outcome [10]: inactive

CC(C)OP(=S)(OC(C)C)SCCNS(=O)(=O)c1ccccc1
AC50 [1]: active: 26 µM and active: 14.5 µM
AC50 [3]: active: 29.9 µM and active: 30 µM and active: 31.1 µM
AC50 [4]: active: 31 µM and active: 33.7 µM
outcome [4]: inactive
AC50 [7]: active: 5.56 µM
outcome [7]: inactive
AC50 [8]: active: 15.2 µM and active: 39.8 µM and active: 37.2 µM
AC50 [9]: active: 31.4 µM and active: 29.4 µM and active: 29.5 µM
AC50 [10]: active: 26.3 µM and active: 14.4 µM and active: 28.5 µM

CCCCC(CC)CO[P+](=O)OCC(CC)CCCC (stereo not given)
outcome [5]: inactive

CCCCO[P+](=O)OCCCC
outcome [5]: inactive

CN(C(=O)Cc1cccc2occc12)[C@H]1CC[C@@]2(CCCO2)C[C@@H]1N1CCCC1
outcome [1]: inactive
outcome [2]: inactive
outcome [3]: inactive
outcome [4]: inactive
outcome [5]: inactive
outcome [6]: inactive
outcome [7]: inactive
outcome [8]: inactive
outcome [9]: inactive
outcome [10]: inactive

O=[N+]([O-])c1ccc([N+](=O)[O-])cc1
outcome [1]: inactive
AC50 [2]: active: 7.21 µM
outcome [3]: inactive
outcome [4]: inactive
outcome [5]: inactive
outcome [6]: inactive
outcome [7]: inactive
outcome [8]: inactive
outcome [9]: inactive
outcome [10]: inactive

O=C1C2CC=CCC2C(=O)N1SC(Cl)(Cl)C(Cl)Cl (stereo not given)
AC50 [1]: active: 14.5 µM
AC50 [2]: active: 6.17 µM
AC50 [4]: active: 29 µM
outcome [5]: inactive
AC50 [7]: active: 5.02 µM
AC50 [8]: active: 13 µM
AC50 [9]: active: 14 µM

ClP(Cl)c1ccccc1
outcome [5]: inactive

O=C(Cl)Oc1ccccc1
outcome [1]: inactive
outcome [2]: inactive
outcome [3]: inactive
outcome [4]: inactive
outcome [5]: inactive
outcome [6]: inactive
AC50 [7]: active: 0.0197 µM
outcome [8]: inactive
outcome [9]: inactive
outcome [10]: inactive

O=[p+]1oc2ccccc2c2ccccc21 (stereo not given)
outcome [5]: inactive
